Data: US20110236501A1, “INJECTABLE DUAL DELIVERY ALLOGRAPH BONE/POLYMER COMPOSITE FOR TREATMENT OF OPEN FRACTURES” (Vanderbilt University, priority 2007, published 2011)
“Also recorded” adds a separate entry of the source.

How the values were obtained:
[1] = In vitro release of BMP-2 from PUR scaffolds (ELISA); format: physicochemical
Description: Small pieces of PUR scaffold incorporated with BMP-2 powder or PLGA particles encapsulated with BMP-2 were incubated in a-MEM containing 1% BSA under 37° C., and the medium was changed every 24 hours. Immunoassay (Human BMP-2 ELISA kit, from R&D systems) was adopted to determine the amount of BMP-2 released from the PUR scaffolds. […] Based on BSA-FITC release data, further decreasing the size of the PLGA particles is expected to achieve a more sustained profile, and the experiment is undergoing.
(§1) BMP-2 was reconstituted in PBS according to the manufacturer's instructions and mixed with heparin and glucose. The resulting solution was lyophilized to yield a dry powder, which was added to the hardener component of the PUR scaffold prior to mixing. Subsequently, Desmodur N3300A polyisocyanate (hexamethylene diioscyanate trimer) was added to the hardener component to prepare the PUR scaffold using published techniques. The PUR scaffolds each contained 2.5 μg BMP-2, 2 wt-% glucose (excipient), and 0.05 wt % heparin to stabilize the BMP-2. In some cases (PLGA-L and PLGA-S), BMP-2 was microencapsulated in PLGA (efficiency 80%) prior to incorporation in the polyurethane scaffold. In vitro release of BMP-2 in PBS at 37° C. was measured from 0 to 21 days by ELISA. The bioactivity of the released BMP-2 was determined by measuring alkaline phosphatase expression by MC3T3 cells incubated in released BMP-2 (FIG. 24).
Growth factors released from two-component polyurethanes with tunable release kinetics enhance new bone formation. Another advantage of PUR scaffolds is that the two-component reactive two-component molding process enables customization using added biologics (e.g., growth factors and/or antibiotics) at the point of care. […] In order to modulate the release kinetics, rhBMP2 (60 μg/ml) was incorporated in PUR scaffolds by either direct addition of a labile powder or by encapsulation in large (L) or small (S) PLGA microspheres prior to incorporation in the scaffold. […]

[2] = test system: MC3T3 cells; assay: Von Kossa mineralization assay of released BMP-2; format: cell-based; conditions: BMP-2 released from PUR scaffolds
Description: (§2) BMP-2 is known to stimulate alkaline phosphatase (ALP) expression and mineralization of MC3T3 cells. To evaluate the bioactivity of the released BMP-2, both ALP and mineralization assays (Von Kossa staining) were carried out. Based on the release profile, PUR/BMP-2 release samples from day 1 to 8 and PUR/PLGA-L-BMP-2 from day 1 to 10 were collected for the analysis respectively.

[3] = test system: MC3T3 cells; assay: Alkaline phosphatase (ALP) assay of released BMP-2; format: cell-based; conditions: BMP-2 released from PUR scaffold
Description: as §2, §1

For “BMP-2: recombinant human bone morphogenetic protein-2”, the “duration of sustained BMP-2 release” value ([1]; BMP-2 encapsulated in 80 μm PLGA microspheres embedded in PUR) was “up to 15 days”, the BMP-2 release profile ([1]; BMP-2 incorporated in PUR scaffolds as a powder) was “a burst release occurred on the first day and little BMP-2 was release after day 8” and the “duration of sustained release of rhBMP2” value ([1]; labile powder in PUR) was “up to 21 days”. For the same substance, the “bioactivity by Von Kossa mineralization assay” value [2] was “bioactive”, the “in vitro bioactivity of released BMP-2 (ALP expression)” value [3] was “stimulated ALP expression; also recorded: significantly greater than that of the negative control (no BMP-2) and less than that of the positive control” and the “in vitro bioactivity of released BMP-2 (ALP expression)” value ([3]; listed as rhBMP2) was “comparable to that of fresh rhBMP2”.
